Results published in patent US9708413B2, “Glycosylated linker, compound containing glycosylated linker moiety and physiologically active substance moiety or salt thereof, and methods for producing said compound or salt thereof” (Glytech, Inc., priority 2012, dated 2017).

Experiment: Autocatalytic cleavage of the glycosylated linker moiety in aqueous solution, traced by HPLC (elimination half-life)
Description: To each sampled solution, a 0.5% aqueous TFA solution (28 μL) was added, and this solution was then frozen. The obtained solution was dissolved immediately before HPLC analysis, and a 50 μL aliquot thereof was injected and analyzed by HPLC [column: SHISEIDO CAPCELL PAK C18 UG-120 (5 μm), φ4.6×250 mm, flow rate: 0.7 mL/min, eluent A: 0.1% TFA in water, eluent B: 0.09% TFA/10% water/90% acetonitrile, gradient A:B=77:23→50:50 (20 min) linear concentration gradient elution]. The compound was detected using a diode array detector with a detection wavelength set to 220 nm.

| Molecule | Cleavage time compared with the conjugate with unprotected N terminus (both at pH 4.0 and at pH 7.4) | Abundance after 6 hours into the test (HPLC) (PBS, 37° C., pH 7.4, 6 hours) |
| --- | --- | --- |
| CC(=O)N[C@@H]1[C@@H](O)[C@H](O[C@@H]2O[C@H](CO)[C@@H](O[C@@H]3O[C@H](CO[C@H]4O[C@H](CO)[C@@H](O)[C@H](O)[C@@H]4O[C@@H]4O[C@H](CO)[C@@H](O[C@@H]5O[C@H](CO)[C@H](O)[C@H](O)[C@H]5O)[C@H](O)[C@H]4NC(C)=O)[C@@H](O)[C@H](O[C@H]4O[C@H](CO)[C@@H](O)[C@H](O)[C@@H]4O[C@@H]4O[C@H](CO)[C@@H](O[C@@H]5O[C@H](CO)[C@H](O)[C@H](O)[C@H]5O)[C@H](O)[C@H]4NC(C)=O)[C@@H]3O)[C@H](O)[C@H]2NC(C)=O)[C@@H](CO)O[C@H]1NC(=O)CC(NC(=O)OCC1c2ccccc2-c2ccccc21)C(=O)N1CCN(CCNC(=O)c2ccccc2C(=O)N[C@@H](Cc2ccc(O)cc2)C(=O)N[C@@H](Cc2ccccc2)C(=O)N2CCC[C@H]2C(=O)NCC(=O)N[C@@H](CCC(N)=O)C(=O)N[C@@H](Cc2ccccc2)C(=O)N[C@@H](C)C(=O)N[C@@H](Cc2ccccc2)C(=O)N[C@@H](CO)C(=O)O)CC1 (some centres unmarked) [compound 7, glycosylated (Fmoc-Asn (asialo)-type) linker-chemerin 9 conjugate] | delayed cleavage time |  |
| chemerin 9 [compound 3, reference compound] |  | present in a large amount |
